Experimental data taken from US12435061B2 (priority 2020, dated 2025).

The chains behind the UniProt entries cited, without tags or fusion partners.
UniProt Q8NET8, whole entry: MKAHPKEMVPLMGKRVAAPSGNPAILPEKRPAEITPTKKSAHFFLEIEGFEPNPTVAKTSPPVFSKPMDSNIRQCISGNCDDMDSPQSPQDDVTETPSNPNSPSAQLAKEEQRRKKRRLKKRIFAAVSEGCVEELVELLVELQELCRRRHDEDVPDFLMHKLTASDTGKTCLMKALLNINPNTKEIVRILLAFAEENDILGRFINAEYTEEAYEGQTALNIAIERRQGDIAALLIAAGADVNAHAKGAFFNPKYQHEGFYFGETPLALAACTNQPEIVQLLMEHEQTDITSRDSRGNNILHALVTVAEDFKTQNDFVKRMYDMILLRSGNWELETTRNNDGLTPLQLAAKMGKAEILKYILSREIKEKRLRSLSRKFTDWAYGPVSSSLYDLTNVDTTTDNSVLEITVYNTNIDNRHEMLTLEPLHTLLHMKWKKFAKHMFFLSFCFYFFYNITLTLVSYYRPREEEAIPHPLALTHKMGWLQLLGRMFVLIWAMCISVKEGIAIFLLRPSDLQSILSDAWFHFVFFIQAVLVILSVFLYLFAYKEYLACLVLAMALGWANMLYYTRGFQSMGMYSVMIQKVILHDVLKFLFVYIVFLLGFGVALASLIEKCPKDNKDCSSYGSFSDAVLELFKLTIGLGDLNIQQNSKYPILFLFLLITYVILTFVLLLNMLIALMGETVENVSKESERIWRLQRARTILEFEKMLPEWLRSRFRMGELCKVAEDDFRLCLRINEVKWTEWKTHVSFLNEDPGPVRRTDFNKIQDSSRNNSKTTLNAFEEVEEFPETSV

Key:
hTRPV3 [1] = biological target: T1, hTRPV3 (Homo sapiens (Human), UniProt Q8NET8); assay: FLIPR Assay (calcium flux, HEK293 cells stably expressing TRPV3); conditions: read-out: FLIPR IC50
hTRPV3 [2] = biological target: T1, hTRPV3; assay: Whole-cell patch clamp, hTRPV3 Phase 1 / Phase 2 currents; type: cell-based; conditions: Phase 1 current

For `O=C(c1nc(CO)cs1)N1CCC(c2ccc(-c3ccccc3C3CC3)cc2CO)C1` (stereo not shown), the IC50 (hTRPV3 [1]) was over 10 µM.
In the case of `COCc1ccc(C(=O)c2ccc(N3CC[C@H](Oc4ncccc4Cl)C3)c(CCO)c2)cc1`, the IC50 (hTRPV3 [2]; read-out: hTRPV3 (nM) (Phase 1)) is reported as 3000 nM and the IC50 (hTRPV3 [2]; read-out: hTRPV3 Patch P1 Inwd, inward, whole-cell patch clamp) is reported as over 1000 nM.
Compound `Cc1cnc(C(=O)N2CCC(c3ccc(-c4ccccc4C4CC4)cc3CO)C2)nc1` (stereo not shown) has an IC50 (hTRPV3 [1]) of 4.6 µM.
`COCc1cccc(C(=O)N2CCC(c3ccc(-c4ccccc4C4CC4)cc3CO)C2)n1` (stereo not shown) [KM-036] showed an IC50 (hTRPV3 [1]) of 0.66 µM.
Work on `CC(C)(O)c1ccnc(C(=O)N2CCC(c3ccc(-c4ccccc4C4CC4)cc3CO)C2)c1` (stereo not shown) yielded an IC50 (hTRPV3 [1]) of over 10 µM.
In the case of `CCn1ccc(C(=O)N2CCC(c3ccc(-c4ccccc4C4CC4)cc3CO)C2)n1` (stereo not shown), the IC50 (hTRPV3 [1]) is reported as 5.74 µM.
